Assay results published in article PMC10856354 (International Journal of Molecular Sciences, 2024).

Chains of the proteins cited; added tags and fusions are not shown. Lines headed by an entry give the natural chain unless they say otherwise; changes in a name come on top.
UniProt P30874: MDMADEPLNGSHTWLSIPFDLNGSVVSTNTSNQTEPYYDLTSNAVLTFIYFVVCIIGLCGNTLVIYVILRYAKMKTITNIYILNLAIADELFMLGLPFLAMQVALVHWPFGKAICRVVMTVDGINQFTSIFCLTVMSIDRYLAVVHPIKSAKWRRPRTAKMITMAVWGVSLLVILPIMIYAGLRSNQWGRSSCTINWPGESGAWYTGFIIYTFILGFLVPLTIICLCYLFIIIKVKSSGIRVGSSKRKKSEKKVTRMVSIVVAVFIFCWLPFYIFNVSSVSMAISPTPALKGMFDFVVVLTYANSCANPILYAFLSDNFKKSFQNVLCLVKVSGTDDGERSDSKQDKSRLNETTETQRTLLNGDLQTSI

Biological target: T1, hSST2R (Homo sapiens, UniProt P30874)
T1 construct: expressed in transfected cells
Assay: Immunofluorescence microscopy-based internalization assay in HEK293-hSST2R cells
Type: cell-based
Settings: 30 min at 37 °C
Procedure: Figure 3 Agonist stimulated hSST2R-internalization in HEK293-hSST2R cells determined by immunofluorescence microscopy.
An immunofluorescence microscopy-based internalization assay for hSST2R was performed in HEK293-hSST2R cells, grown on poly-DLys (20 μg/mL) (Sigma-Aldrich, St. Louis, MO, USA) coated 35-mm four-well plates (Cellstar, Greiner Bio-One GmbH, Frickenhausen, Germany). […] HEK293-hSST2R cells treated with vehicle alone were used as a negative control. The cells were then rinsed twice with PS (100 mM phosphate buffer containing 0.15 M sucrose), fixed and permeabilized for 7 min with cold methanol (−20 °C), rinsed twice with PS, and then blocked for 60 min at room temperature with PS containing 0.1% BSA. Next, cells were incubated for 60 min at room temperature with the hSST2R-specific primary antibody R2-88 (provided by Dr. A. Schönbrunn, Houston, TX, USA) diluted 1:1000 in PS and washed 3 × 5 min with PS containing 0.1% BSA. The cells were incubated for 60 min at room temperature in the dark with the secondary antibody Alexa Fluor 488 goat anti-rabbit IgG (H+ L) (Molecular Probes, Inc., Eugene, OR, USA) diluted in PS (1:600), washed 3 × 5 min with PS containing 0.1% BSA, embedded with PS/glycerol 1:1, and covered with a glass cover slip. […]

Substance: [Tyr^3]octreotide [TOC, reference compound]
- ligand-induced hSST2R internalization (agonism) (10 nM): clearly able to trigger the internalization of hSST2R
- ligand-induced hSST2R internalization (agonism) (1 µM): clearly able to trigger the internalization of hSST2R
